The results in this text go back to patent US9018255B2, “Esters of (acyloxymethyl)acrylamide, a pharmaceutical composition containing them, and their use as inhibitors of the thioredoxin—thioredoxin reductase system” (Instytut Chemii Organicznej Polskiej Akademii Nauk, priority 2010, dated 2015).

Protein sequences, listed by entry. Tags and fused reporters are not part of them. Lines headed by an entry give the natural chain unless they say otherwise; changes in a name come on top.
UniProt P10599: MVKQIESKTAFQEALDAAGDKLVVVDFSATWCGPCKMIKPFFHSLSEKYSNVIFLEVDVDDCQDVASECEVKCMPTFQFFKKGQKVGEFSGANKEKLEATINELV

For this assay, the target named is human recombinant thioredoxin (Homo sapiens (Human), UniProt P10599). Nature of the assay: Thioredoxin activity, insulin reduction / DTNB assay with recombinant enzymes. As to conditions: 37° C., 30 min, 0.25 μM thioredoxin, 0.325 μM thioredoxin reductase; read-out: IC50 of thioredoxin inhibition. The class given is biochemical. As to the method: The method of determining thioredoxin activity is based on the reduction of insulin by thioredoxin. Thioredoxin is reconstituted is by thioredoxin reductase, with NADPH. The resulting free thiol —SH groups react with 5,5′-dithiobis-2-nitrobenzoic acid (DTNB). The termination of the reaction results in the formation of a […] colour. The intensity of colouration is determined spectrophotometrically at 412 nm and this corresponds to the number of reduced sulfahydryl groups. The reaction was performed at 37° C. over 30 min. in a buffer containing 50 mM Tris-HCl and 20 mM EDTA at a pH of 7.6. The substrate concentrations used were: 0.25 μM human recombinant thioredoxin and 0.325 μM rat recombinant thioredoxin reductase (IMCO Corporation Ltd AB, Sweden) and 316 μM of insulin, 0.8 μM NADPH, 8 mM DTNB (Sigma Aldrich).

Molecules are shown by their SMILES.

Usually IC50 stands for the concentration needed to halve the response being measured. In the case of `CCC(C)SSc1ncc[nH]1` (stereo not shown) [PX-12, 1-methylpropyl-2-imidazole disulphide, reference compound], the IC50 is 15.4 µM.
